# “And” between values parts separate entries of the source, which are not always exact repeats. Identical values can stand only once.
# Sequences of proteins named here, by UniProt entry; tags and fusion partners are left off. A change or cut given only in a name is not applied to a line headed by its entry. Residues count along the entry.
# UniProt O96017, 220-486 limits assumed: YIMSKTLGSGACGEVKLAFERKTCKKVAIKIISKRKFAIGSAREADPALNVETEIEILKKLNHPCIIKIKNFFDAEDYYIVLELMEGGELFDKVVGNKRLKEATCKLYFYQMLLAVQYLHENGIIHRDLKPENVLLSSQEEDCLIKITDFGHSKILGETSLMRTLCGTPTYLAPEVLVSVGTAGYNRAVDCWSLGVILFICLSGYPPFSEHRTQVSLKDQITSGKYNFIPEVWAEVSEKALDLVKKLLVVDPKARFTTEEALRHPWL
# UniProt Q09013: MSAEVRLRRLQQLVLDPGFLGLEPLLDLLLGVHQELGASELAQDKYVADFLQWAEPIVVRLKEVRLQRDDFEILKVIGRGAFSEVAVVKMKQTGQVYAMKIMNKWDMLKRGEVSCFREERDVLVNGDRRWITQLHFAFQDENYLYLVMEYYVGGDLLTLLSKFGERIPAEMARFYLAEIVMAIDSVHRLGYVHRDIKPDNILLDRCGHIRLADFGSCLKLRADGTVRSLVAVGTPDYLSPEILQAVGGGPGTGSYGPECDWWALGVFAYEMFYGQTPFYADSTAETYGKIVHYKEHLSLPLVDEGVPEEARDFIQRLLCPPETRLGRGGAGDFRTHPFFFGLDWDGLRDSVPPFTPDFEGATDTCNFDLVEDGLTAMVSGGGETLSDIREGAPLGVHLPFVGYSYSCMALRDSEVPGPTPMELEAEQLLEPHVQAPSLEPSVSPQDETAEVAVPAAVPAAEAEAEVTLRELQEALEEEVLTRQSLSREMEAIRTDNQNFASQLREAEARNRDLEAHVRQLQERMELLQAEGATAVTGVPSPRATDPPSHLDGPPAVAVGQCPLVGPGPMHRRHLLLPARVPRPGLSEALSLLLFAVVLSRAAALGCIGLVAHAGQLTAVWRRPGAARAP
# UniProt P00519, 242-493 limits assumed: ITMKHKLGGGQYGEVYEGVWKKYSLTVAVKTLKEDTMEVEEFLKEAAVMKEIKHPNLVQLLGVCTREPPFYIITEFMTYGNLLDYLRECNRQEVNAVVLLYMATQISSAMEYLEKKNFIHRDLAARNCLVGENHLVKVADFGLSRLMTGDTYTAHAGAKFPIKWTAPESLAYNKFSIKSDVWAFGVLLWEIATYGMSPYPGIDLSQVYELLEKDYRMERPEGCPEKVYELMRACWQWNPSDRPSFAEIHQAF
# UniProt P28482, 25-313 limits assumed: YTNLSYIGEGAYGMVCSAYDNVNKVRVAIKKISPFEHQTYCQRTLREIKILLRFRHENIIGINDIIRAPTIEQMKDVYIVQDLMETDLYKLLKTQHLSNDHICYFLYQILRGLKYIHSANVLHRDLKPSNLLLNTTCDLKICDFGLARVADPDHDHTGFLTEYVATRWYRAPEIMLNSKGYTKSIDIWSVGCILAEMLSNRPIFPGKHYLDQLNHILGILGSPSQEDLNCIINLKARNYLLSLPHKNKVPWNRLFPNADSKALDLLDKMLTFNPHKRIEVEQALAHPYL
# UniProt P21802, 458-768 limits assumed: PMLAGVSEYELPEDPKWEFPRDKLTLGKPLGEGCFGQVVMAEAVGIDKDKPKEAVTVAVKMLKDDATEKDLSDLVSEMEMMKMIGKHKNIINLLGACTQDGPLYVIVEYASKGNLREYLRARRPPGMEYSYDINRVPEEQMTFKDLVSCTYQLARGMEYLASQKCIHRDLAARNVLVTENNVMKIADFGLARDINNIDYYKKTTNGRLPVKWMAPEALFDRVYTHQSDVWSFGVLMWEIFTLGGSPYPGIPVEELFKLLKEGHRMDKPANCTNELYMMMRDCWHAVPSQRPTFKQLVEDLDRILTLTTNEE
# UniProt Q9H2X6, 199-527 limits assumed: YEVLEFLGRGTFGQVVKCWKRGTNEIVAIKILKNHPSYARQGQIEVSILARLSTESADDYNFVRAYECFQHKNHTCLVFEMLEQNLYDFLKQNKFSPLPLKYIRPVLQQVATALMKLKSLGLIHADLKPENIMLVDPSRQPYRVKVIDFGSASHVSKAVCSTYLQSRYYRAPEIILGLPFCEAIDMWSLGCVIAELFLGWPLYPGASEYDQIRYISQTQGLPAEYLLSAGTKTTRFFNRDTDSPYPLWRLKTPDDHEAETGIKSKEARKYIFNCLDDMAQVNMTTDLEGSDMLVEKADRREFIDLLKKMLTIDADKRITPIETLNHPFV
# UniProt O75582, 426-687 limits assumed: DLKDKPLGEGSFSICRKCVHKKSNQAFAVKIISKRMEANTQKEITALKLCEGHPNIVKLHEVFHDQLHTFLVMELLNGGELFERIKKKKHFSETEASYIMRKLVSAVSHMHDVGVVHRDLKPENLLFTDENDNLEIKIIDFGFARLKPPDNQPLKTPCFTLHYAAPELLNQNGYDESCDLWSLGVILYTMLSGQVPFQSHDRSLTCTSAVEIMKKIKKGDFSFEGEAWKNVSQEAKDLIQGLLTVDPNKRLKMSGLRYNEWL
# UniProt P45985, 102-367 limits assumed: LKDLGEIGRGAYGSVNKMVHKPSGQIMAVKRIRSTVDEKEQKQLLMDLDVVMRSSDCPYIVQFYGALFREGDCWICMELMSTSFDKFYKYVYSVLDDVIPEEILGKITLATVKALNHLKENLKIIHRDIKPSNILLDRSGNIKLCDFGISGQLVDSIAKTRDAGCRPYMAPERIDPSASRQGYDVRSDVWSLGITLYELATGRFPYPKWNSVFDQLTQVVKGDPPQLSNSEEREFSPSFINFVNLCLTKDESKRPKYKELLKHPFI
# UniProt P49674, 1-294 limits assumed: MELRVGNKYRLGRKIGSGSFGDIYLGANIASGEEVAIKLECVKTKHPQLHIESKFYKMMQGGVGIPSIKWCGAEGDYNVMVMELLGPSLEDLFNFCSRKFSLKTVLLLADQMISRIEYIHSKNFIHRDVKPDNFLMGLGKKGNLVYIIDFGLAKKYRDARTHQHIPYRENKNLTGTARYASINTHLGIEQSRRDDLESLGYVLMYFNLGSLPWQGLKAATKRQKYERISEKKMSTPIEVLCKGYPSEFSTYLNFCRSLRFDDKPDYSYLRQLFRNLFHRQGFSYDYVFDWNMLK
# UniProt Q99683, 659-951 limits assumed: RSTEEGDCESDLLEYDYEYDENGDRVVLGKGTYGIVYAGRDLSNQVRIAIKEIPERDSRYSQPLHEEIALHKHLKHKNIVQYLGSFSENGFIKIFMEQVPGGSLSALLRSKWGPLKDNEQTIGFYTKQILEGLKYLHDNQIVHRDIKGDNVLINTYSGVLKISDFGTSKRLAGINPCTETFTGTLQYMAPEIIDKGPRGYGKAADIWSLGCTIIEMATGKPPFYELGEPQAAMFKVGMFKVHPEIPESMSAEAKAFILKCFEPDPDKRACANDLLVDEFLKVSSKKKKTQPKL
# UniProt P53355, 13-275 limits assumed: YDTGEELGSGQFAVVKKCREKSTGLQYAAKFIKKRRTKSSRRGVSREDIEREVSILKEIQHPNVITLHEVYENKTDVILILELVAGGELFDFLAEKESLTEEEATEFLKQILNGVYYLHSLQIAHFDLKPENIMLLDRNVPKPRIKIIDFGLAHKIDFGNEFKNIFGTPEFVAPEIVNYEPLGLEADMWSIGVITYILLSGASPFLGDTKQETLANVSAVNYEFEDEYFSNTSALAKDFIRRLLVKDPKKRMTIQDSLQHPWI
# UniProt P51813, 417-675 limits assumed: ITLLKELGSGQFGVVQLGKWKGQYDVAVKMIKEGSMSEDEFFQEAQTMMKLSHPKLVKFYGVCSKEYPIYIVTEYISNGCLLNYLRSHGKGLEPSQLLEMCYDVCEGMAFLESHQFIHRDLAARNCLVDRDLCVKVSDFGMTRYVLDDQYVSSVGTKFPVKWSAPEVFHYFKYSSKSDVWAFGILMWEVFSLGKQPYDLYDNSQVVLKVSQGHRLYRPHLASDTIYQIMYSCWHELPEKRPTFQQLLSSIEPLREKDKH
# UniProt P29317, 613-875 limits assumed: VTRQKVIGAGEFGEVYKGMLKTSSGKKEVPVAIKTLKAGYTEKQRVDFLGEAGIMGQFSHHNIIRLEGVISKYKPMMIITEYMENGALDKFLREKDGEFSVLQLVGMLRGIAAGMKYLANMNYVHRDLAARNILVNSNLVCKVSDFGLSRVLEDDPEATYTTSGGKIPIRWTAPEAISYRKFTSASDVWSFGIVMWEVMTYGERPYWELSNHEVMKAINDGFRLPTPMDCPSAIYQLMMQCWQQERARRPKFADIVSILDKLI
# UniProt Q16539, whole entry, looked up: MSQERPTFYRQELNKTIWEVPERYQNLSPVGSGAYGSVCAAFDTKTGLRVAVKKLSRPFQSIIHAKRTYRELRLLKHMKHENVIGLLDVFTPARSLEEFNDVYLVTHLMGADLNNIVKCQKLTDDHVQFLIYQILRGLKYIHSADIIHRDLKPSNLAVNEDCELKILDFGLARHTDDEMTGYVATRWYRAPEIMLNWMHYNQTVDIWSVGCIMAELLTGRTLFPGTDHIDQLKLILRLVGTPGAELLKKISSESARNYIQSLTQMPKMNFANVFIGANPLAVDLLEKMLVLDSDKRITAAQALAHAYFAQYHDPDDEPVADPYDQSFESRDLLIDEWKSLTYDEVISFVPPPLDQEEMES
# UniProt P54753, 633-896 limits assumed: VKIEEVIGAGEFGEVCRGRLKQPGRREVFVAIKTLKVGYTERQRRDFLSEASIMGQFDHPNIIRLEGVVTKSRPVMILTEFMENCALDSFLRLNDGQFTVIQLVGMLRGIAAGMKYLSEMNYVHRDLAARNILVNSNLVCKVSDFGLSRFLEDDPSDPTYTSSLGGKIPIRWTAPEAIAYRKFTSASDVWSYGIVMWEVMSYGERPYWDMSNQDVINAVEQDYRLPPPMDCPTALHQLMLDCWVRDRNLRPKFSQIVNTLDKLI
# UniProt O15264: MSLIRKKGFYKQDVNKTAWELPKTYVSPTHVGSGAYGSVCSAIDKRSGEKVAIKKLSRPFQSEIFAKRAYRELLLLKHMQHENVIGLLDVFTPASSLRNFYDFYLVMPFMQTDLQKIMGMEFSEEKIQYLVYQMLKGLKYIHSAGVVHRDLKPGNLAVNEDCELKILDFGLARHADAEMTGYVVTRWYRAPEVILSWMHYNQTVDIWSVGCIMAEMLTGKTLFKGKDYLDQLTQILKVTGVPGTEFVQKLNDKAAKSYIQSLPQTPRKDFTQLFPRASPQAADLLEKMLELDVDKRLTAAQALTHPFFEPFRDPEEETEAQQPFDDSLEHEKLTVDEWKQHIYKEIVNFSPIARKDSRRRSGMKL
# UniProt Q9Y243, 148-479 limits assumed: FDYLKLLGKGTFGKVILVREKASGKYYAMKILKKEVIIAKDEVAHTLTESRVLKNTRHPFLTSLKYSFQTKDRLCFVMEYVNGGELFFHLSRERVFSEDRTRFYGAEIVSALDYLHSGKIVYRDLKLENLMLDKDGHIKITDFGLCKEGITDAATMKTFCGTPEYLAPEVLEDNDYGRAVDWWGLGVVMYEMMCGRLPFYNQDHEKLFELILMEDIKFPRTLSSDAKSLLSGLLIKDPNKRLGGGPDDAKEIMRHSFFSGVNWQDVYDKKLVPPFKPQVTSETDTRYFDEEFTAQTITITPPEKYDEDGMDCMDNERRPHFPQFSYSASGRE
# UniProt Q00536, 163-478 limits assumed: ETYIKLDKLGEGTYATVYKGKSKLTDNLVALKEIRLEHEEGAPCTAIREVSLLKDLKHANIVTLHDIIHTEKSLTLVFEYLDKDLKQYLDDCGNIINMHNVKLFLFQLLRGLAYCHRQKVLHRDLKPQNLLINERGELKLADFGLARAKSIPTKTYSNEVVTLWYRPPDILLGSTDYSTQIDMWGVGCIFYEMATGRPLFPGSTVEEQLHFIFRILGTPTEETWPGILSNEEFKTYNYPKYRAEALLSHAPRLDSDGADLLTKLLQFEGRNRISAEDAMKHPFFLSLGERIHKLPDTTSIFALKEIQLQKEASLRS
# UniProt O43293, 13-275 limits assumed: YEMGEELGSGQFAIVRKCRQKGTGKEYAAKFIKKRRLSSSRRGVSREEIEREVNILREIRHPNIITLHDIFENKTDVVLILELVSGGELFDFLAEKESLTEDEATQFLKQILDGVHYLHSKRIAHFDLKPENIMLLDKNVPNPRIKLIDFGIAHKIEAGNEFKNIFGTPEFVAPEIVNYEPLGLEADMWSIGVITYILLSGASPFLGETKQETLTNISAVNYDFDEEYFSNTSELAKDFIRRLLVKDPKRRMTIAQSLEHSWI
# UniProt Q13043, 1-311 limits assumed: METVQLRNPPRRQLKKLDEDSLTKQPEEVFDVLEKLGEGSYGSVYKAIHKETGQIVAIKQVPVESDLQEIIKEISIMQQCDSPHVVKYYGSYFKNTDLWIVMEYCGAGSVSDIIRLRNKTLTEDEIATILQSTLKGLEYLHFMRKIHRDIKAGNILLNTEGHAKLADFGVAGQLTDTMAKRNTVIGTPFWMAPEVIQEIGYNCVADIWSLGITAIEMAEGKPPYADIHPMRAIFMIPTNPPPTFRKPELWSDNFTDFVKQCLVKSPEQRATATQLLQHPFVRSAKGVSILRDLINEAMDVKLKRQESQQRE
# UniProt Q96GD4, 77-327 limits assumed: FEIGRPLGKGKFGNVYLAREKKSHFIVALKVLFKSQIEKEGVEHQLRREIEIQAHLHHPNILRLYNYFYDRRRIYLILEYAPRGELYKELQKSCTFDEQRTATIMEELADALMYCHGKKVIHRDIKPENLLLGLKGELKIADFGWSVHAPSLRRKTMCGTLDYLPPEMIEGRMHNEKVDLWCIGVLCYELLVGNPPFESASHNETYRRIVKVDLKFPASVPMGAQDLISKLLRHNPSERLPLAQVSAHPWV
# Columns and labels:
# [1] = biological target: CAMK2B (Homo sapiens, UniProt Q13554); test: DSF kinase panel; conditions: 10 μM
# [2] = biological target: PHKg2 (Homo sapiens, UniProt P15735); test: DSF kinase panel; conditions: 10 μM
# [3] = biological target: CHK2 (Homo sapiens, UniProt O96017); test: DSF kinase panel; conditions: 10 μM
# [4] = biological target: DMPK1 (Homo sapiens, UniProt Q09013); test: DSF kinase panel; conditions: 10 μM
# [5] = biological target: MER (Homo sapiens, UniProt Q12866); test: DSF kinase panel; conditions: 10 μM
# [6] = biological target: ABL1 (Homo sapiens, UniProt P00519); test: DSF kinase panel; conditions: 10 μM
# [7] = biological target: Erk2 (Homo sapiens, UniProt P28482); test: DSF kinase panel; conditions: 10 μM
# [8] = biological target: FGFR2 (Homo sapiens, UniProt P21802); test: DSF kinase panel; conditions: 10 μM
# [9] = biological target: ULK3 (Homo sapiens, UniProt Q6PHR2); test: DSF kinase panel; conditions: 10 μM
# [10] = biological target: HIPK2 (Homo sapiens, UniProt Q9H2X6); test: DSF kinase panel; conditions: 10 μM
# [11] = biological target: MSK1_b (Homo sapiens, UniProt O75582); test: DSF kinase panel; conditions: 10 μM
# [12] = biological target: MEK4 (Homo sapiens, UniProt P45985); test: DSF kinase panel; conditions: 10 μM
# [13] = biological target: SRPK1 (Homo sapiens, UniProt Q96SB4); test: DSF kinase panel; conditions: 10 μM
# [14] = biological target: CSNK1E (Homo sapiens, UniProt P49674); test: DSF kinase panel; conditions: 10 μM
# [15] = biological target: MAP3K5 (Homo sapiens, UniProt Q99683); test: DSF kinase panel; conditions: 10 μM
# [16] = biological target: EPHB1 (Homo sapiens, UniProt P54762); test: DSF kinase panel; conditions: 10 μM
# [17] = biological target: MAP2K1 (Homo sapiens, UniProt Q02750); test: DSF kinase panel; conditions: 10 μM
# [18] = biological target: DAPK1 (Homo sapiens, UniProt P53355); test: DSF kinase panel; conditions: 10 μM
# [19] = biological target: BMX (Homo sapiens, UniProt P51813); test: DSF kinase panel; conditions: 10 μM
# [20] = biological target: EphA2 (Homo sapiens, UniProt P29317); test: DSF kinase panel; conditions: 10 μM
# [21] = biological target: FGFR1 (Homo sapiens, UniProt P11362); test: DSF kinase panel; conditions: 10 μM
# [22] = biological target: JNK2 (Homo sapiens, UniProt P45984); test: DSF kinase panel; conditions: 10 μM
# [23] = biological target: p38a (Homo sapiens, UniProt Q16539); test: DSF kinase panel; conditions: 10 μM
# [24] = biological target: EPHB3 (Homo sapiens, UniProt P54753); test: DSF kinase panel; conditions: 10 μM
# [25] = biological target: p38d (Homo sapiens, UniProt O15264); test: DSF kinase panel; conditions: 10 μM
# [26] = biological target: ATK3 (Homo sapiens, UniProt Q9Y243); test: DSF kinase panel; conditions: 10 μM
# [27] = biological target: CDK2 (Homo sapiens, UniProt P24941); test: DSF kinase panel; conditions: 10 μM
# [28] = biological target: PIM3 (Homo sapiens, UniProt Q86V86); test: DSF kinase panel; conditions: 10 μM
# [29] = biological target: PCTAIRE1 (Homo sapiens, UniProt Q00536); test: DSF kinase panel; conditions: 10 μM
# [30] = biological target: DAPK3 (Homo sapiens, UniProt O43293); test: DSF kinase panel; conditions: 10 μM
# [31] = biological target: MST2 (Homo sapiens, UniProt Q13188); test: DSF kinase panel; conditions: 10 μM
# [32] = biological target: MST1 (Homo sapiens, UniProt Q13043); test: DSF kinase panel; conditions: 10 μM
# [33] = biological target: AurA (Homo sapiens, UniProt O14965); test: DSF kinase panel; conditions: 10 μM
# [34] = biological target: TLK1 (Homo sapiens, UniProt Q9UKI8); test: DSF kinase panel; conditions: 10 μM
# [35] = biological target: AURKB (Homo sapiens, UniProt Q96GD4); test: DSF kinase panel; conditions: 10 μM
# [36] = biological target: PAK1 (Homo sapiens, UniProt Q13153); test: DSF kinase panel; conditions: 10 μM
# [37] = biological target: TTK (Homo sapiens, UniProt P33981); test: DSF kinase panel; conditions: 10 μM
# [38] = biological target: DYRK2 (Homo sapiens, UniProt Q92630); test: DSF kinase panel; conditions: 10 μM
# [39] = Metabolic stability assay, mouse microsomes
# [40] = Metabolic stability assay, human microsomes
# [41] = Plasma stability assay, mouse; conditions: 1 μg∙mL-1
# [42] = Plasma protein binding, human; conditions: for PPB human (%): mean; for PPB human, single replicate: raw data of Table 3
# [43] = Plasma protein binding, mouse; conditions: for PPB mouse (%): mean
smiles,measurement,setting,value
Clc1cnc2[nH]ccc2c1-c1ccn[nH]1,ΔTm CAMK2B,[1],-0.5 °C
same,ΔTm PHKg2,[2],2.9 °C
same,ΔTm CHK2,[3],2.9 °C
same,ΔTm DMPK1,[4],0.9 °C
same,ΔTm MER,[5],-0.6 °C
same,ΔTm ABL1,[6],1.9 °C
same,ΔTm Erk2,[7],0.0 °C
same,ΔTm FGFR2,[8],-0.1 °C
same,ΔTm ULK3,[9],4.4 °C
same,ΔTm HIPK2,[10],0.3 °C
same,ΔTm MSK1_b,[11],4.1 °C
same,ΔTm MEK4,[12],2.9 °C
same,ΔTm SRPK1,[13],-0.4 °C
same,ΔTm CSNK1E,[14],1.0 °C
same,ΔTm MAP3K5,[15],6.5 °C
same,ΔTm EPHB1,[16],0.6 °C
same,ΔTm MAP2K1,[17],-0.1 °C
same,ΔTm DAPK1,[18],1.1 °C
same,ΔTm BMX,[19],0.3 °C
same,ΔTm EphA2,[20],-0.3 °C
same,ΔTm FGFR1,[21],1.8 °C
same,ΔTm JNK2,[22],-0.3 °C
same,ΔTm p38a,[23],-0.7 °C
same,ΔTm EPHB3,[24],-1.9 °C
same,ΔTm p38d,[25],0.3 °C
same,ΔTm ATK3,[26],0.1 °C
same,ΔTm CDK2,[27],-0.2 °C
same,ΔTm PIM3,[28],-0.1 °C
same,ΔTm PCTAIRE1,[29],-0.2 °C
same,ΔTm DAPK3,[30],1.6 °C
same,ΔTm MST2,[31],1.5 °C
same,ΔTm MST1,[32],1.1 °C
same,ΔTm AurA,[33],6.9 °C
same,ΔTm TLK1,[34],-1.3 °C
same,ΔTm AURKB,[35],6.5 °C
same,ΔTm PAK1,[36],-0.7 °C
same,ΔTm TTK,[37],0.8 °C
same,ΔTm DYRK2,[38],2.3 °C
same,t1/2 mouse microsomes,[39],>1 h
same,t1/2 human microsomes,[40],>1 h
same,t1/2 mouse plasma,[41],> 4 h
same,PPB human (%),[42],74.9 ± 14.2%
same,"PPB human, single replicate",[42],64.9% and 84.9%
same,PPB mouse (%),[43],71.5 ± 19.3%
NC(=O)Cn1cc(-c2c(Cl)cnc3[nH]ccc23)nn1,ΔTm CAMK2B,[1],0.0 °C
same,ΔTm PHKg2,[2],1.1 °C
same,ΔTm CHK2,[3],2.4 °C
same,ΔTm DMPK1,[4],1.0 °C
same,ΔTm MER,[5],-0.6 °C
same,ΔTm ABL1,[6],1.3 °C
same,ΔTm Erk2,[7],0.5 °C
same,ΔTm FGFR2,[8],-0.1 °C
same,ΔTm ULK3,[9],4.4 °C
same,ΔTm HIPK2,[10],0.9 °C
same,ΔTm MSK1_b,[11],5.6 °C
same,ΔTm MEK4,[12],4.5 °C
same,ΔTm SRPK1,[13],-0.3 °C
same,ΔTm CSNK1E,[14],2.3 °C
same,ΔTm MAP3K5,[15],9.4 °C
same,ΔTm EPHB1,[16],0.2 °C
same,ΔTm MAP2K1,[17],0.2 °C
same,ΔTm DAPK1,[18],1.5 °C
same,ΔTm BMX,[19],0.0 °C
same,ΔTm EphA2,[20],-0.3 °C
same,ΔTm FGFR1,[21],1.1 °C
same,ΔTm JNK2,[22],0.1 °C
same,ΔTm p38a,[23],-0.7 °C
same,ΔTm EPHB3,[24],-1.6 °C
same,ΔTm p38d,[25],0.3 °C
same,ΔTm ATK3,[26],0.0 °C
same,ΔTm CDK2,[27],0.0 °C
same,ΔTm PIM3,[28],-0.3 °C
same,ΔTm PCTAIRE1,[29],-0.6 °C
same,ΔTm DAPK3,[30],4.3 °C
same,ΔTm MST2,[31],0.8 °C
same,ΔTm MST1,[32],1.2 °C
same,ΔTm AurA,[33],7.2 °C
same,ΔTm TLK1,[34],-1.4 °C
same,ΔTm AURKB,[35],6.0 °C
same,ΔTm PAK1,[36],-0.9 °C
same,ΔTm TTK,[37],1.4 °C
same,ΔTm DYRK2,[38],3.4 °C
same,t1/2 mouse microsomes,[39],>1 h
same,t1/2 human microsomes,[40],>1 h
same,t1/2 mouse plasma,[41],1.937 h
same,PPB human (%),[42],55.3 ± 9.9%
same,"PPB human, single replicate",[42],55.1% and 65.3% and 45.5%
same,"PPB mouse, single replicate","[43]; maus, raw data of Table 3",20.4% and 8.0% and 29.4%
same,PPB mouse (%),[43],19.3 ± 10.7%
